The values below are quoted from earlier work in paper PMC11571012, “Synthesis and Preclinical Evaluation of a Bispecific PSMA-617/RM2 Heterodimer Targeting Prostate Cancer” (ACS Medicinal Chemistry Letters, 2024).

Sequences of proteins named here, by UniProt entry; tags and fusion partners are left off. A change or cut given only in a name is not applied to a line headed by its entry.
UniProt P30550: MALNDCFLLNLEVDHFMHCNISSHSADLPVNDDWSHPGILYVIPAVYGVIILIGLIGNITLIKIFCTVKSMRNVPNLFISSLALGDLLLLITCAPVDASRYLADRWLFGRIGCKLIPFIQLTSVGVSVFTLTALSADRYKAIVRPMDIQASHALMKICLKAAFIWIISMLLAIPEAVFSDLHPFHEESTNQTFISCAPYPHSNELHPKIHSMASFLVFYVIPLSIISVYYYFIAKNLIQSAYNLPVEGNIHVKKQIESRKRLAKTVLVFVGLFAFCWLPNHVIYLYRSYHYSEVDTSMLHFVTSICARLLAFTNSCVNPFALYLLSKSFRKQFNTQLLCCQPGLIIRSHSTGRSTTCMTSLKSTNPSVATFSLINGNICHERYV

The data set concerns the target GRPR in PC-3 cells (PSMA-, GRPR+) (Homo sapiens, UniProt P30550). The conditions noted are these: read-out: IC50 of standard radioligand (GRPR); standard used at C = 50 pM; no reference given; cited from earlier work.

With “125I-[Tyr4]-BN (QQRYGNQWAVGHLM) [^125I-bombesin]”, the IC50 is 0.4 nM.
